Molecules are shown by their SMILES.

These results are taken from ChEMBL document CHEMBL1137037, “Pyrrolo[2,1-c][1,4]benzodiazepine-anthraquinone conjugates. Synthesis, DNA binding and cytotoxicity” (Bioorg Med Chem Lett, 2004).

The test concerns Calf thymus DNA. The test can be described thus: Thermal denaturation of calf thymus DNA at 18 hr at 37 degree C. Type of test: nucleic-acid assay. As to conditions: Bos taurus. Summed up: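 Calf thymus DNA at 100 μM with ligand at 20 μM (1:5 [PBD]/[DNA] molar ratio), in 10 mM sodium phosphate plus 1 mM EDTA, pH 7.00 ± 0.01. Samples were incubated at 37 °C for 0 h or 18 h before thermal melting. The value is the induced ΔTm against DNA alone, whose Tm is the mean of 10 separate determinations.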

Regarding `COc1cc2c(cc1O)N=C[C@@H]1CCCN1C2=O`, the ΔTm (as a rule, the change in melting temperature against a reference sample) amounted to 0.7 °C.
